{"source": "patent US20220016272A1", "about": "“COMPOSITIONS, METHODS AND KITS FOR DIAGNOSING AND TREATING CD206 EXPRESSING CELL-RELATED DISORDERS” (Cardinal Health 414, LLC, priority 2013, published 2022)", "conditions": "injected close to the diseased locus", "data": [{"substance": "dextran 3-[(2-aminoethyl)thio]propyl 17-carboxy-10,13,16-tris (carboxymethyl)-8-oxo-4-thia-7,10,13,16-tetraazaheptadec-1-yl 3-[[2-[[1-imino-2-(D-mannopyranosylthio) ethyl]aminolethyllthiolpropyl ether complexes [tilmanocept]", "values": [{"measurement": "injection site clearance attributed to small diameter", "result": "rapid injection site clearance"}]}]}
